The target in the test is T1, human recombinant His-fused soluble protein MDM2 (residues 1–118) (Homo sapiens, UniProt Q00987).
T1 construct: His-fused soluble protein MDM2 (residues 1–118); His
Type of test: binding.

Chains of the proteins cited; added tags and fusions are not shown. Residues count along the entry.
UniProt Q00987, 1-118: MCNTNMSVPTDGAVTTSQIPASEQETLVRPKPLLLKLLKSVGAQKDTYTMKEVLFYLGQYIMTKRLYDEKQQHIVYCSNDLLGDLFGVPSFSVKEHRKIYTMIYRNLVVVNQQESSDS

SMILES strings stand for the structures.

Regarding `COc1ccc(C2=N[C@@H](c3ccc(Cl)cc3)[C@@H](c3ccc(Cl)cc3)N2C(=O)N2CCNC(=O)C2)c(OC(C)C)c1` [Nutlin-3a, reference compound], the FQ-Test is given as 0.84.
